AlphaSeq binding of Ab-14 light chain variants to a spike HR2 peptide

Reference: Engelhart et al. 2022, doi:10.1038/s41597-022-01779-4. File: FLAb, binding data.

Target: peptide PDVDLGDISGINAS, taken from heptad repeat 2 (HR2) of SARS-CoV-2 spike.

The variants keep the heavy chain, the linker and the frameworks of Ab-14 (scFv order VH, a 15-residue (Gly4Ser)3 linker, VL).
VH: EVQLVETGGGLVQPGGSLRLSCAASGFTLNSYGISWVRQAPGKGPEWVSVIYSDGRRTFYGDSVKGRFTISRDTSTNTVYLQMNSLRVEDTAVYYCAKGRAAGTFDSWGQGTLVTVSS
VL: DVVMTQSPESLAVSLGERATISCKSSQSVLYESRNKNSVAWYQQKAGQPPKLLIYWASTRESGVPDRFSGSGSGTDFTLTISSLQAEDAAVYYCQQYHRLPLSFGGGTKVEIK

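The library (AAYL50) carries one to three amino acid substitutions per variant, with no insertions or deletions. In AlphaSeq, yeast of one mating type display the scFv and yeast of the other type display the target. Mating (16 h, 30 °C) was followed by selection of diploids and sequencing of their barcodes. A regression on co-assayed BCL2-family reference pairs converts the normalised counts of each replicate to an apparent Kd. Mating was done three times.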

Positions count from residue 1 of the parent VL; S25T puts T in place of S. Numbers give log10(Kd / nM), so 0 is 1 nM and 3 is 1 µM. Smaller is tighter. A mean of the replicates is given; it leaves out those without a signal. "ND" marks a missing value. The strain was present, yet no cells mated with the target were sequenced in that replicate, which points to weak or no binding. Background: pairings of library AAYL50 with three empty control strains gave a value in 18% of cases (median 4.19, 5th percentile 2.99). Values in that range, when seen in few replicates, are hard to tell from nonspecific mating. For reference, the parent read 0.65 as the reference entry and 1.68 as a member of this library.

changes,"replicates, log10 nM","mean, log10 nM"
S25T A57M,2.07 1.81 1.90,1.93
S33K R60L,2.00 2.16 2.14,2.10
N37L H98R S103I,ND ND 3.73,3.73
L30N S38Q,2.97 1.97 2.22,2.39
K24L K36P H98L,ND ND 2.86,2.86
Q27N E32A,ND 3.39 ND,3.39
S28I S62C L100W,2.36 2.52 3.03,2.64
Q27A W56Q Q96G,-0.14 0.26 0.20,0.11
V29T E32G H98C,1.59 1.43 1.44,1.49
T59E R60Y,2.93 2.34 2.92,2.73
K24H E61W P101R,3.36 2.57 1.57,2.50
Q27E A40K L102F,5.15 ND ND,5.15
V29N K36V S62D,0.48 0.72 0.62,0.61
E32C H98M,2.32 2.88 ND,2.60
Y31R E32R T59E,ND ND ND,ND
K24Q R34V N35F,1.69 2.04 1.82,1.85
N35T N37A Y97N,1.39 1.03 1.19,1.21
V29N N35S K36V,ND 3.64 3.31,3.47
S28N N37H E61Q,1.39 1.66 1.96,1.67
S26L L30F W56R,0.39 0.50 0.55,0.48
E32C T59W Q96P,ND ND ND,ND
S25W N35I N37A,2.89 3.14 2.61,2.88
V39H A40G Y97A,ND 4.26 ND,4.26
K36P V39Y T59H,ND ND ND,ND
S28N N35S P101K,ND ND ND,ND
Q27Y V29H L100E,ND ND 5.38,5.38
V29K S38Q T59E,1.31 1.35 1.44,1.37
A40W W56H S58Q,ND 5.17 4.92,5.04
S58D T59E Q95H,1.53 1.55 1.59,1.56
S26F E32C S58Q,6.15 4.82 ND,5.49
Q27L Y31F S62I,ND ND ND,ND
V29N T59N S62I,1.45 1.63 1.77,1.62
Y31L S33N K36H,0.50 0.75 0.76,0.67
E32N S38A Q96E,1.52 1.44 1.55,1.50
S25C E61H Q96H,1.28 1.20 1.79,1.43
K36M R99K L102V,2.99 3.98 1.95,2.97
L30A E32Y T59M,ND 4.13 ND,4.13
K36F S62W Y97A,ND ND ND,ND
N37R W56K,1.44 1.53 1.59,1.52
Q27I N35Y S58M,3.09 3.53 2.76,3.13

A selection of 7 entries from above:

changes,"replicates, log10 nM","mean, log10 nM"
A40W W56H S58Q,ND 5.17 4.92,5.04
Q27L Y31F S62I,ND ND ND,ND
V29T E32G H98C,1.59 1.43 1.44,1.49
V29N K36V S62D,0.48 0.72 0.62,0.61
K24H E61W P101R,3.36 2.57 1.57,2.50
S26F E32C S58Q,6.15 4.82 ND,5.49
S28N N37H E61Q,1.39 1.66 1.96,1.67